{"source": "patent US12709745B2", "about": "(priority 2012, dated 2026)", "origin": "cited, not measured here", "tested_on": "ALS", "conditions": "in vivo; cited from earlier work"}
{"smiles": "Nc1nc2ccc(OC(F)(F)F)cc2s1", "note": "[riluzole]", "values": [{"measurement": "prolongation of median survival", "result": "2-3 months"}]}
